# Assay: bioequivalence study in rats: d-tetrandrine plasma concentration after oral gavage of free base versus hydrochloride salt (HPLC)
# Format: in vivo, Sprague-Dawley rats
# Method: A bioequivalence study in rats was conducted to compare the rate and extent to which the active drug ingredient (d-tetrandrine) is absorbed from a free base versus a hydrochloride salt. The drug ingredients were formulated in capsules by the University of Kentucky Center for Pharmaceutical Sciences and Technology (CPST) to administer equivalent amounts of d-tetrandrine to rats via oral gavage. Dosing syringes, capsule filling apparatus and mini capsules (size 9) appropriate for dosing rats were obtained from Torpac (Fairfield, N.J.).
# A single rat per time point (destructive sampling) was used to obtain as much blood volume as possible for the HPLC analysis. This was necessary to accommodate analysis with the current UV based HPLC assay that had extensively been used at CBA Pharma. The JPLC analyses were performed at the CBA Pharma facilities, by a scientist with extensive experience in plasma based assay. Results were provided to a second scientist for evaluation and modeling.
# Given the limited information on rat d-tetrandrine pharmacokinetics (PK), the studies were conducted in stages. A preliminary study (pilot) to identify the dose required for adequate assay sensitivity was first conducted using approximately 25 mg/kg and approximately 120 mg/kg doses administered in capsules. […]
# In some cases the plasma concentrations could not be determined due to extremely high interfering peaks. […]
substance,measurement,setting,value
d-tetrandrine-2HCl,"AUC estimates (Bailer method), acid versus base formulation","100 mg/kg, p>0.05, FIG. 6",no statistical or otherwise significant difference
same,"plasma concentrations and dose normalized plasma concentrations, comparison of d-tetrandrine and d-tetrandrine-2HCl formulations","higher dose (approximately 230 mg/kg capsules, 200 mg/kg liquid/suspension), Student t-test, two-tailed, p>0.05, FIG. 2",no statistical difference
